# Measured affinities in a library of Ab-14 heavy chain variants

Target peptide (SARS-CoV-2 spike, HR2 region): PDVDLGDISGINAS

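This is the validation round: designs drawn from the data on random variants, tested in the same kind of assay. Group labels follow the data file (En: ensemble of fine-tuned language models; HC: hill climbing; Gen: genetic algorithm; Gibbs: Gibbs sampling; a sequence that several methods proposed may carry one label only). The assay is AlphaSeq: two haploid yeast populations carry antibody and antigen on their surface. Mating (16 h, 30 °C) was followed by selection of diploids and sequencing of their barcodes. The ratio of observed to expected reads was calibrated, replicate by replicate, on BCL2-family standards whose Kd was known from biolayer interferometry. There are six technical replicates.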

Ab-14 is the parent antibody, in scFv form: VH, then three GGGGS repeats, then VL. The light chain is unchanged in all variants.
VH: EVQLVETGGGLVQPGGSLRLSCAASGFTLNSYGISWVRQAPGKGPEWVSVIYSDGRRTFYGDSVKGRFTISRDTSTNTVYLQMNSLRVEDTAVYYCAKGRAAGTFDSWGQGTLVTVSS
VL: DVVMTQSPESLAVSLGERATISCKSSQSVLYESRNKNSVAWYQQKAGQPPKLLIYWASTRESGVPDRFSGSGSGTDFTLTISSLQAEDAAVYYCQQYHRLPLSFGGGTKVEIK

Variants are written as CDR1, CDR2 and CDR3 of the heavy chain (limits as in the source). Parent: GFTLNSYGIS, VIYSDGRRTFYGDSVK, GRAAGTFDS.
Variants here have more than six changes.
Each Kd is an estimate from the mating assay, the geometric mean of the replicates in which the pair was seen; lower is stronger.
An entry "nd" has no value in the source: the pair was not observed among the diploids in any replicate. This suggests poor binding but is not conclusive.

GFDLNEYGIS | VIYADGVRTFYVDSVK | GVNAGTFDV [En_HC]: 200 pM (6 of 6 replicates; controls 0 of 18).
GKSLDEYGIS | VIYADGMRHMYTDSVK | GQFDDGMDL [En_Gibbs]: nd (0 of 6 replicates; controls 0 of 18).
GFDLDEYGIS | VIYADGMRTAYSDNVK | GQVAGTFDV [En_Gen]: 370 pM (6 of 6 replicates; controls 0 of 18).
GFDLDEYGIS | VIYADGMRTAYTDSVK | GEVAGTFDM [En_Gen]: 300 pM (6 of 6 replicates; controls 0 of 18).
GFDLNEYGIS | VIYADGLRTAYADDVK | GNNAGTFDI [En_Gen]: 310 pM (6 of 6 replicates; controls 0 of 18).
GFDLNEYGIS | VIYADGVRTAYADSVK | GNEAGTFDV [En_Gen]: 980 pM (4 of 6 replicates; controls 0 of 18).
GFDLNEYGIS | VIYADGKRTAYADSVK | GNIAGTFDI [En_Gen]: 450 pM (6 of 6 replicates; controls 0 of 18).
GFDLNEYGIS | VIYADGRRTFYADSVK | GEAAGTFNL [En_HC]: 820 pM (6 of 6 replicates; controls 0 of 18).
GFDLNEYGIS | VIYADGMRTFYADSVK | GTNAGTFDV [En_Gen]: 550 pM (6 of 6 replicates; controls 0 of 18).
GFDLDEYGIS | VIYADGRRTFYADSVK | GNNAGTFDM [En_HC]: 860 pM (6 of 6 replicates; controls 0 of 18).
GFDLNEYGIS | VIYADGVRTFYIDSVK | GEIAGTFNV [En_HC]: 620 pM (6 of 6 replicates; controls 0 of 18).
GFDLNEMGIS | VIYADGMRTKFTESVK | GTGDGSFLL [En_Gibbs]: nd (0 of 6 replicates; controls 0 of 18).
GFDLDEYGIS | VIYADGRRTFYTDSVK | GETAGTFDV [En_HC]: 370 pM (6 of 6 replicates; controls 0 of 18).
GFDLNEYGIS | VIYADGQRTFYADSVK | GQAAGTFDI [En_HC]: nd (0 of 6 replicates; controls 0 of 18).
GFDLNEYGIS | VIYADGRRTSYSDSVK | GEAAGTFNV [En_HC]: 250 pM (6 of 6 replicates; controls 0 of 18).
GFDLNEYGIS | VIYADGRRTFYSDSVK | GQNGGTFDM [En_HC]: 1.4 nM (6 of 6 replicates; controls 1 of 18).
GFDLNEYGIS | VIYADGMRTQYADSVK | GENAGTFDL [En_Gen]: 1.9 nM (6 of 6 replicates; controls 0 of 18).
GFNLDEYGIS | VIYADGQRTAYAKHVK | GTGGMKRVV [En_Gibbs]: nd (0 of 6 replicates; controls 0 of 18).
GFDLNEYGIS | VIYADGMRTFYADSVK | GQVAGTFDL [En_Gen]: 350 pM (6 of 6 replicates; controls 0 of 18).
GFDLNEYGIS | VIYADGVRKAYADDVK | GNVAGTFDQ [En_Gen]: 370 pM (6 of 6 replicates; controls 0 of 18).
GEQLDEYGIS | VIYADGRKQYYANSVK | GDSADGFDL [En_Gibbs]: nd (0 of 6 replicates; controls 1 of 18).
GFDLNEYGIS | VIYADGKRTFYSDSVK | GQTGGTFDE [En_HC]: 590 pM (6 of 6 replicates; controls 0 of 18).
GFDLNEYGIS | VIYADGFRTFYADSVK | GNLAGTFDQ [En_HC]: 250 pM (6 of 6 replicates; controls 0 of 18).
GENLEEYGIS | VIYADGFRTQYAEKVK | GQQGGFFIK [En_Gibbs]: 540 nM (1 of 6 replicates; controls 0 of 18).
GFDLNEYGIS | VIYADGMRTAYADSVK | GQTAGTFDL [En_Gen]: 420 pM (6 of 6 replicates; controls 0 of 18).
GFDIEEYGIS | VIYADGVRKAYQNSFK | GEVGGTFTN [En_Gibbs]: 3.2 nM (6 of 6 replicates; controls 1 of 18).
GFDLNEYGIS | VIYADGRRTAYLDSVK | GQTAGTFDT [En_HC]: 1.2 nM (6 of 6 replicates; controls 0 of 18).
GFNLDEYGIS | VIYADGMRTAYADSVK | GETAGTFDV [En_Gen]: 550 pM (6 of 6 replicates; controls 0 of 18).
GFDLNEYGIS | VIYADGMRTFYADSVK | GEVAGTFDQ [En_Gen]: 120 pM (6 of 6 replicates; controls 0 of 18).
GFNLDEYGIS | VIYADGQRTFYADSVK | GEVAGTFDT [En_HC]: nd (0 of 6 replicates; controls 0 of 18).
GFNLDEYGIS | VIYADGSRTAYADSVK | GEVAGTFDV [En_Gen]: 630 pM (6 of 6 replicates; controls 0 of 18).
GFDLDEYGIS | VIYADGMRTAYADSVK | GEVAGTFDL [En_Gen]: 410 pM (6 of 6 replicates; controls 0 of 18).
GFDLNEYGIS | VIYADGTRTAYADDVK | GENAGTFDV [En_Gen]: 530 pM (6 of 6 replicates; controls 0 of 18).
GFDLDQYGIS | VIYADGIRSVYADAVK | GHEGGILYV [En_Gibbs]: nd (0 of 6 replicates; controls 0 of 18).
GDGLKEYGIS | VIYADGMRESYVNDVK | GQKSGIFNL [En_Gibbs]: nd (0 of 6 replicates; controls 0 of 18).
GFDLNEYGIS | VIYADGVRTAYANSVK | GEVAGTFDL [En_Gen]: 530 pM (6 of 6 replicates; controls 0 of 18).
GFDLNEYGIS | VIYADGKRTAYADSVK | GNNAGTFDT [En_Gen]: 1.4 nM (6 of 6 replicates; controls 0 of 18).
GFDLQEYGIS | VIYADGKRTKVTDNVK | GTVTGTAFT [En_Gibbs]: nd (0 of 6 replicates; controls 0 of 18).
GFDLEDYGIS | VIYADGRRTAYIDSVK | GEIAGTFDS [En_HC]: 1.2 nM (6 of 6 replicates; controls 0 of 18).
GFDLNEYGIS | VIYADGRRTAYIDSVK | GGNAGTFDV [En_Gen]: 540 pM (6 of 6 replicates; controls 0 of 18).
GFDLNEYGIS | VIYADGRRTFYADSVK | GNTAGTFTN [En_HC]: 450 pM (6 of 6 replicates; controls 0 of 18).
GFDLEEFGIS | VIYADGMRTAYSDAVK | GTFSGTVDV [En_Gibbs]: nd (0 of 6 replicates; controls 0 of 18).
GFDLNEYGIS | VIYADGRRTQYIDSVK | GETAGTFDE [En_HC]: 150 pM (6 of 6 replicates; controls 0 of 18).
GFDLDEYGIS | VIYADGQRTAYADKVK | GNVAGTFDL [En_Gen]: 12 nM (6 of 6 replicates; controls 0 of 18).
GFDLNEYGIS | VIYADGKRTAYANSVK | GEVAGTFDQ [En_Gen]: 350 pM (6 of 6 replicates; controls 0 of 18).
GFDLDEYGIS | VIYADGKRTFYADSVK | GENAGTFDM [En_HC]: 460 pM (6 of 6 replicates; controls 1 of 18).
GADINEYGIS | VIYADGNRIAYQDQVK | GNNAGSFDI [En_Gibbs]: 730 nM (1 of 6 replicates; controls 1 of 18).
GFDLNEYGIS | VIYADGRRTAYSDSVK | GEIAGTFDF [En_HC]: 290 pM (6 of 6 replicates; controls 1 of 18).
GFDLNEYGIS | VIYADGRRTFYSDSVK | GQTGGTFDL [En_HC]: 19 nM (6 of 6 replicates; controls 0 of 18).
GFDLNEYGIS | VIYADGKRTAYSDSVK | GNQAGTFDI [En_Gen]: 850 pM (6 of 6 replicates; controls 0 of 18).
GFDLNEYGIS | VIYADGMRTAYSDDVK | GNNAGTFDQ [En_Gen]: 350 pM (6 of 6 replicates; controls 0 of 18).
GFNLDEYGIS | VIYADGRRTFYSDNVK | GENAGTFDI [En_HC]: 450 pM (6 of 6 replicates; controls 0 of 18).

For reference, 8 entries of the list once more:

CDR-H1,CDR-H2,CDR-H3,group,Kd (apparent),detected,signal with controls
GFDLEEFGIS,VIYADGMRTAYSDAVK,GTFSGTVDV,En_Gibbs,nd,0 of 6,0 of 18
GFDLNEYGIS,VIYADGKRTAYADSVK,GNNAGTFDT,En_Gen,1.4 nM,6 of 6,0 of 18
GFDLEDYGIS,VIYADGRRTAYIDSVK,GEIAGTFDS,En_HC,1.2 nM,6 of 6,0 of 18
GFDLNEYGIS,VIYADGMRTAYSDDVK,GNNAGTFDQ,En_Gen,350 pM,6 of 6,0 of 18
GFDLDEYGIS,VIYADGQRTAYADKVK,GNVAGTFDL,En_Gen,12 nM,6 of 6,0 of 18
GFDLDEYGIS,VIYADGKRTFYADSVK,GENAGTFDM,En_HC,460 pM,6 of 6,1 of 18
GFDLDEYGIS,VIYADGMRTAYTDSVK,GEVAGTFDM,En_Gen,300 pM,6 of 6,0 of 18
GFNLDEYGIS,VIYADGQRTFYADSVK,GEVAGTFDT,En_HC,nd,0 of 6,0 of 18

The authors' rule: three or more of the six replicates give a measured affinity, fewer mean a poor binder.
Values of this round are not directly comparable with the first-round values of the same sequences.
Background: pairings of all heavy chain designs with three empty control strains gave a value in 1% of cases (median 120 nM, 5th percentile 7.0 nM). Values in that range, when seen in few replicates, are hard to tell from nonspecific mating. The control count says in how many pairings with the empty strains this scFv gave a signal.
Of ten entries with the parent sequence, four were seen in most replicates (averages 2.2 nM to 240 nM), three in one and three in none, so single entries are noisy.

The measurements come from Li et al. 2023 (doi:10.1038/s41467-023-39022-2) through the FLAb antibody collection.